Test system: MOLM-13 cells
Assay: Cell viability assay
Type: cell-based
Details: Homo sapiens, MOLM-13, 96 h, read-out: IC50 cell growth inhibition MOLM-13

IC50: 66 ± 14 nM
Structure (SMILES): COc1cc2c(cc1-c1c(C)noc1C)[nH]c1ccnc(-c3c(C4CC4)n[nH]c3C)c12 [Compound 18, 4-(1-(3-Cyclopropyl-5-methyl-1H-pyrazol-4-yl)-8-methoxy-5H-pyrido[4,3-b]indol-7-yl)-3,5-dimethylisoxazole]

From paper PMC5474678 (Journal of medicinal chemistry, 2015)
